This note sets out measurements from patent US9592211B2, “Compositions for improvement of brain function” (GRESPO AB, priority 2012, dated 2017).

For this assay, the system named is blood platelets, lymphocytes, eosinophils, monocytes. The assay is described as follows: Blood chemistry / hematological parameters, Example 3. It counts as in vivo, Mongolian gerbils. The note with it: old gerbils, end of 6 month feeding (FIG. 3C).

For the molecule `O=C(O)CCC(=O)C(=O)O` [AKG, alpha-ketoglutaric acid], the eosinophile count result is on record as “but not by AKG by itself or ENZ by itself”.
